## Yeast mating assay 2: variants of the scFv Ab-91

All variants were tested on one target, the spike HR2 peptide PDVDLGDISGINAS (SARS-CoV-2).

Ab-91 is the parent antibody, in scFv form: VL, then a 15-residue (Gly4Ser)3 linker, then VH. The light chain is unchanged in all variants.
VL: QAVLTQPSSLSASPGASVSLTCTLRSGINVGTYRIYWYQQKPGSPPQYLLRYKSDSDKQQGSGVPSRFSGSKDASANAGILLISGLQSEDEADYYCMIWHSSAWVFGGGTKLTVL
VH: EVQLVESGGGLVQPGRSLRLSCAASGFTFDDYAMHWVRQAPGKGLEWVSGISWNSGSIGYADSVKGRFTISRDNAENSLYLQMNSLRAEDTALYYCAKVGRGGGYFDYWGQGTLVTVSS

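The parent was found by panning a naive human phage display library on the peptide. AAYL51 was designed without a model: most single CDR substitutions and a random sample of double and triple ones. AlphaSeq pools MATa yeast showing the antibodies with MATalpha yeast showing the peptide. The frequency of each diploid, read from paired DNA barcodes, reflects how well the two displayed proteins bind. A regression on co-assayed BCL2-family reference pairs converts the normalised counts of each replicate to an apparent Kd. There are three technical replicates.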

Positions count from residue 1 of the parent VH; T28E puts E in place of T.
This list gathers variants with a substitution at A61 (VH, numbered from residue 1).
The Kd shown is the geometric mean over detected replicates; a lower Kd is a better binder.
"nd" marks a missing value. The strain was present, yet no cells mated with the target were sequenced in any replicate, which points to weak or no binding.
Order: sorted from the lowest average up, undetected variants last.
Three control strains display no target. For library AAYL51, 21% of the pairings with them gave a signal, with a median of 34 µM and one signal in twenty below 1.8 µM, so weak values seen in few replicates may be background.
In this assay the parent's reference entry averaged 72 nM; its copy inside this library read 7.5 nM.

Variant T28E/A33P/A61Q showed 150 nM (3 of 3 replicates). For G26E/H35E/A61T, the assay gave 170 nM (3 of 3 replicates). For G26N/A61T/R101A, the assay gave 1.9 µM (1 of 3 replicates). Variant N54V/S55V/A61V showed 4.9 µM (1 of 3 replicates). For G26L/A33M/A61S, the assay gave 6.9 µM (1 of 3 replicates).

Variant D30K/A61W/Y105H showed 9.4 µM (2 of 3 replicates). For A61M/R101Q/Y108I, the assay gave 12 µM (3 of 3 replicates). For D31V/A61V/Y108V, the assay gave 19 µM (2 of 3 replicates). Variant A61E/D62S/R101P showed 21 µM (2 of 3 replicates). Variant G50Q/A61P/V64S showed 27 µM (1 of 3 replicates).

For G50R/A61T/Y108V, the assay gave 33 µM (3 of 3 replicates). With Y32S/G59C/A61N the result was 37 µM (2 of 3 replicates). Variant I51W/A61H/G104D gave 60 µM (2 of 3 replicates). For G56D/A61R/F106A, the assay gave 62 µM (1 of 3 replicates). With H35S/G50C/A61E the result was 68 µM (1 of 3 replicates).

With F27A/G59D/A61Q the result was 76 µM (1 of 3 replicates). For A61C/K65A/G104K, the assay gave 77 µM (2 of 3 replicates). With A61K the result was 81 µM (3 of 3 replicates). For W53H/A61C/G102K, the assay gave 84 µM (2 of 3 replicates). With A33N/A61L the result was 85 µM (3 of 3 replicates).

Variant T28S/S57R/A61D showed 100 µM (2 of 3 replicates). Variant Y60R/A61T/Y108C gave 120 µM (2 of 3 replicates). Variant I51Q/A61W/V64L gave 120 µM (1 of 3 replicates). For G50I/N54W/A61V, the assay gave 120 µM (2 of 3 replicates). Variant G26H/A61K/S63T showed 170 µM (1 of 3 replicates).

Variant A61N/F106I/Y108F gave 170 µM (2 of 3 replicates). Variant F27P/A61K gave 200 µM (1 of 3 replicates). Variant A61N gave 290 µM (1 of 3 replicates). With F27G/A61W/D62N the result was 390 µM (1 of 3 replicates). Variant D31I/A61V/G100C gave 480 µM (3 of 3 replicates).

Variant A61C/K65N/D107T gave 500 µM (1 of 3 replicates). Variant G56C/A61L showed 1.3 mM (2 of 3 replicates). Variant D30N/A61C/Y105N gave nd (0 of 3 replicates). For F27T/Y60I/A61P, the assay gave nd (0 of 3 replicates). Variant A61Q/G100W/Y105D showed nd (0 of 3 replicates).

Variant I58M/A61R/V64K showed nd (0 of 3 replicates). Variant A61H/V99W/G103W showed nd (0 of 3 replicates). Variant H35R/I58K/A61Y showed nd (0 of 3 replicates). For Y32E/I58C/A61L, the assay gave nd (0 of 3 replicates). With H35G/G50H/A61R the result was nd (0 of 3 replicates).

Variant G50D/A61M/D62P showed nd (0 of 3 replicates). Variant A61W/R101A/Y108F showed nd (0 of 3 replicates). Variant F29D/G59S/A61M gave nd (0 of 3 replicates). Variant Y32H/A61H/V99L showed nd (0 of 3 replicates). With A61Q/D62T/S63A the result was nd (0 of 3 replicates).

Variant D31A/I58G/A61N gave nd (0 of 3 replicates). Variant G26A/A61R/F106W showed nd (0 of 3 replicates). With F29A/Y32I/A61S the result was nd (0 of 3 replicates). Variant H35D/A61M/G103Y gave nd (0 of 3 replicates). With F27W/W53K/A61Q the result was nd (0 of 3 replicates).

With T28R/S52D/A61D the result was nd (0 of 3 replicates).

Again, the first 6 entries without any signal:

changes	Kd	replicates with signal
D30N/A61C/Y105N	nd	0/3
F27T/Y60I/A61P	nd	0/3
A61Q/G100W/Y105D	nd	0/3
I58M/A61R/V64K	nd	0/3
A61H/V99W/G103W	nd	0/3
H35R/I58K/A61Y	nd	0/3

Reference: Engelhart et al. 2022, doi:10.1038/s41597-022-01779-4. File: FLAb, binding data.